Data from patent publication EP4843570A1, “USE OF AMINO ACID CHELATED ZINC IN IMMUNOMODULATION AND TREATING AUTOIMMUNE DISEASES” (dated 2026).

Experiments:
CIA rat = experiment: Collagen-induced arthritis (CIA) rat model: arthritis severity score and paw volume/weight percentage; settings: for arthritis severity after Day 17: compared to the CIA group
[1] = test system: mouse bone marrow dendritic cells (BMDC); experiment: ELISA analysis of IL12P70 secretion in BMDC medium; settings: text statement for the groups (all concentrations), 48 hours
[2] = Fig. 3, after administration from Day 17, compared to the CIA group
[3] = Fig. 4, Day 24, compared to the untreated CIA rats (p value<0.05)

Molecule	weight percentages of the rats' paws (CIA rat; [2])	weight percentages of the rats' paws (CIA rat; [3])	arthritis severity after Day 17 (CIA rat)	summed average scores of arthritis severity of both paws (CIA rat; Day0, before administration (administration from Day 17))	summed average scores of arthritis severity of both paws (CIA rat; Day3, before administration (administration from Day 17))	summed average scores of arthritis severity of both paws (CIA rat; Day7, before administration (administration from Day 17))	summed average scores of arthritis severity of both paws (CIA rat; Day10, before administration (administration from Day 17))	IL12P70 in the media [1]
CN(Cc1cnc2nc(N)nc(N)c2n1)c1ccc(C(=O)N[C@@H](CCC(=O)O)C(=O)O)cc1	gradually decreased	significantly decreased	slower progression, or even reduction	–	–	–	–	–
glycine-chelated zinc	gradually decreased	significantly decreased	slower progression, or even reduction	0	0	0	0	not detected
Zinc sulfate	–	–	–	–	–	–	–	not detected
